In this assay the target is Substance-P receptor (Homo sapiens, UniProt P25103). Nature of the assay: Tested for binding affinity against neurokinin 1 (NK1) receptor.

By UniProt entry, the sequences of proteins in these tests, tags left out.
UniProt P25103, whole entry: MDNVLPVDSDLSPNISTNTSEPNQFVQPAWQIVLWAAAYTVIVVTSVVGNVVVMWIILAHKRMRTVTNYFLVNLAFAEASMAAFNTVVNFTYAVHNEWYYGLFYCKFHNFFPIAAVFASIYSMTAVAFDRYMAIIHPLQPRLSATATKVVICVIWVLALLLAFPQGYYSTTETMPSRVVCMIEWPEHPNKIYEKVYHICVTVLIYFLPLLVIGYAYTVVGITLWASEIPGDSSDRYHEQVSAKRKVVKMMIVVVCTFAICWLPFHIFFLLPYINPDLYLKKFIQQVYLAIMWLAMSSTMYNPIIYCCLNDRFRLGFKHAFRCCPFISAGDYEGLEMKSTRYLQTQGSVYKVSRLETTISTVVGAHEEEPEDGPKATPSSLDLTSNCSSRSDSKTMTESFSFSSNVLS

A word on the Ki: it is the dissociation constant of the complex between target and ligand, obtained from inhibition or displacement. Low values mean a stronger hold on the target, high ones a looser hold on the target. As to `CO/N=C(\CN(C)C(=O)c1ccccc1OC)C(CCN1CCC(O)(c2ccccc2)CC1)c1ccc(Cl)c(Cl)c1` (stereo unspecified), the inhibitory constant (Ki) was determined as 58 nM.

(Values after ChEMBL document CHEMBL1135364, “Synthesis and structure-activity relationships of oxime neurokinin antagonists: discovery of potent arylamides” (Bioorg Med Chem Lett, 2002).)
